Among the data in ChEMBL document CHEMBL1142276, “Synthesis, cannabinoid receptor affinity, and molecular modeling studies of substituted 1-aryl-5-(1H-pyrrol-1-yl)-1H-pyrazole-3-carboxamides” (J Med Chem, 2008) are Ki values, retold here.

Amino acid sequences for entries named in this document (tags omitted).
UniProt P34972, whole entry: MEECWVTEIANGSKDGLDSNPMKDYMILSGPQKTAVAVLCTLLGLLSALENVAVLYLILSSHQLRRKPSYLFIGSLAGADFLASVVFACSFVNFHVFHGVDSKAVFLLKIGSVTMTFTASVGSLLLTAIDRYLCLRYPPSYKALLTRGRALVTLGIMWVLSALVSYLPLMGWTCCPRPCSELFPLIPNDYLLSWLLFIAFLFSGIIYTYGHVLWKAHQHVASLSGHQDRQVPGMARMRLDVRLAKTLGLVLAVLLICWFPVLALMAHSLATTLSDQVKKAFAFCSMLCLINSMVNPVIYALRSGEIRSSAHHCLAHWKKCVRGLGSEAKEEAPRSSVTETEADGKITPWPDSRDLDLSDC

The term Ki denotes a dissociation constant, usually derived from enzyme kinetics or from competition with a known ligand.

Each structure is given as a SMILES string.

The assay addresses Cannabinoid receptor 2 (Homo sapiens, UniProt P34972). As to the kind of experiment: Displacement of [3H]CP-55940 from human recombinant CB2 receptor expressed in HEK cells. It is filed as cell-based, HEK293. (Displacement assays read how much labelled ligand stays bound in the presence of the test substance.)

Consider `Cc1c(C(=O)NN2CCCCC2)nn(-c2ccc(Cl)cc2Cl)c1-c1ccc(I)cc1`, for which the Ki was 112 nM.
